## Binding of CDR-mutated scFvs to a peptide of the spike HR2 region

All variants were tested on one target, the spike HR2 peptide PDVDLGDISGINAS (SARS-CoV-2).

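The parent was found by panning a naive human phage display library on the peptide. Library AAYL49 holds single substitutions and randomly drawn double and triple substitutions in the CDRs. In AlphaSeq, yeast of one mating type display the scFv and yeast of the other type display the target. Binding brings cells together so that they mate, and sequencing counts the barcode pairs among the diploids. The ratio of observed to expected reads was calibrated, replicate by replicate, on BCL2-family standards whose Kd was known from biolayer interferometry. Each pool was mated in three replicate cultures.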

Ab-14 is the parent antibody, in scFv form: VH, then three GGGGS repeats, then VL. The light chain is unchanged in all variants.
VH: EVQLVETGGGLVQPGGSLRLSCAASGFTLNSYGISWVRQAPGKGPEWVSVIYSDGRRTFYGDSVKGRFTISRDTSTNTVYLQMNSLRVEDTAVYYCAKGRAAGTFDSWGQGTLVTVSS
VL: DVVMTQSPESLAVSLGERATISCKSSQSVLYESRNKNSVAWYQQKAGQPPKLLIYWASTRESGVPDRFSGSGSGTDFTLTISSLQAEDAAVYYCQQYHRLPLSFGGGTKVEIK

Changes read parent residue, position, new residue, counted from the first residue of the VH shown.
Numbers give log10(Kd / nM), so 0 is 1 nM and 3 is 1 µM. Smaller is tighter.
"ND" marks a missing value. The strain was present, yet no cells mated with the target were sequenced in that replicate, which points to weak or no binding.
Three control strains display no target. For library AAYL49, 15% of the pairings with them gave a signal, with a median of 4.06 and one signal in twenty below 2.83, so weak values seen in few replicates may be background. Also given: how often the same scFv was detected with the empty control strains.
For reference, the parent read 0.65 as the reference entry and 4.11 (one replicate of three) as a member of this library.

The variant S35V V50I G103A gave ND, ND, ND (controls 0 of 9).
The variant D54S F59H G99E gave ND, ND, ND (controls 0 of 9).
The variant G33R S35M gave ND, ND, ND (controls 2 of 9).
The variant G55H T58L S107D gave ND, 4.37, ND (controls 5 of 9).
The variant F27H G55W T104C gave 1.88, ND, ND (controls 0 of 9).
The variant S53I D62L A101L gave ND, ND, 3.75 (controls 1 of 9).
The variant L29A R57T G103K gave ND, ND, ND (controls 0 of 9).
The variant S31I S53Y V64T gave ND, 3.21, ND (controls 1 of 9).
The variant T28Y Y52K S53V gave ND, ND, ND (controls 0 of 9).
The variant Y32K G33M S63Q gave 0.99, 1.15, 1.15 (controls 4 of 9).
The variant L29E I51F R100A gave ND, ND, ND (controls 2 of 9).
The variant G26W D62H G103W gave ND, ND, ND (controls 2 of 9).
The variant I34A G103N F105I gave ND, ND, ND (controls 1 of 9).
The variant G61D G99N F105I gave 3.97, 3.29, 4.18 (controls 4 of 9).
The variant S35I G103C gave ND, 3.73, ND (controls 1 of 9).
The variant G33N I51Y F105A gave ND, ND, 4.55 (controls 3 of 9).
The variant D54I G55R R100Q gave ND, ND, ND (controls 0 of 9).
The variant G26F K65Q R100Q gave ND, 3.38, 3.06 (controls 1 of 9).
The variant R57Y G61S K65A gave 4.52, ND, ND (controls 3 of 9).
The variant S63I A101D D106P gave ND, ND, ND (controls 0 of 9).
The variant G26A S31D F105L gave 1.32, 1.94, 2.09 (controls 2 of 9).
The variant G26M D54Q A101H gave ND, ND, ND (controls 1 of 9).
The variant Y32P G61D R100E gave ND, ND, ND (controls 2 of 9).
The variant L29S S35R V64H gave 5.28, ND, 3.75 (controls 5 of 9).
The variant V50E S63E K65C gave ND, 3.43, ND (controls 0 of 9).
The variant R100C T104W gave ND, ND, ND (controls 1 of 9).
The variant S31E V50H A101G gave ND, ND, ND (controls 1 of 9).
The variant G33N V50W A102P gave ND, ND, ND (controls 0 of 9).
The variant F27N S31N A102F gave ND, ND, ND (controls 1 of 9).
The variant L29W S31V R56T gave 4.49, 3.99, 4.63 (controls 6 of 9).
The variant F27E I51F S53P gave 4.26, 3.68, ND (controls 2 of 9).
The variant G33F D54M F59I gave 3.56, ND, ND (controls 1 of 9).
The variant L29D G33W Y60M gave ND, 4.58, 4.08 (controls 2 of 9).
The variant L29Y S35H G103D gave ND, ND, ND (controls 0 of 9).
The variant F27E T28W F59A gave 0.24, 0.53, 0.53 (controls 1 of 9).
The variant V50A R57H S107W gave ND, ND, ND (controls 4 of 9).
The variant S35L T58S G103I gave ND, ND, 5.14 (controls 5 of 9).
The variant S31T Y32Q gave 1.56, 1.73, 1.66 (controls 1 of 9).
The variant F27T I51S D54Y gave ND, ND, ND (controls 1 of 9).
The variant V50A R57G S107M gave ND, ND, ND (controls 0 of 9).
The variant Y32D R57A D62A gave ND, ND, ND (controls 1 of 9).
The variant S35N G55L R100W gave ND, ND, ND (controls 1 of 9).
The variant T28D V50P D106H gave ND, 3.92, 5.15 (controls 4 of 9).
The variant I51K G55M R57E gave ND, ND, ND (controls 0 of 9).
The variant G33D gave 4.42, ND, ND (controls 1 of 9).
The variant F27W G55I G61F gave 3.97, ND, 4.83 (controls 2 of 9).
The variant I51Q D106I gave ND, ND, ND (controls 1 of 9).
The variant D54W T58Y gave ND, ND, ND (controls 0 of 9).
The variant S53Y R57S Y60W gave ND, ND, ND (controls 0 of 9).
The variant K65H F105G gave ND, 3.19, ND (controls 3 of 9).

Excerpt, the final 5 entries:

changes,"replicates, log10 nM",control signals
F27W G55I G61F,"3.97, ND, 4.83",2/9
I51Q D106I,"ND, ND, ND",1/9
D54W T58Y,"ND, ND, ND",0/9
S53Y R57S Y60W,"ND, ND, ND",0/9
K65H F105G,"ND, 3.19, ND",3/9

Values reported by Engelhart et al. 2022, doi:10.1038/s41597-022-01779-4 (FLAb copy).